Target: C-X-C chemokine receptor type 4 (Homo sapiens, UniProt P61073)
Test: Displacement of [125I]-SDF-1alpha from CXCR4 receptor expressed in HEK293 cells after 1 hr by scintillation counting
Type: cell-based

By UniProt entry, the sequences of proteins in these tests, tags left out.
UniProt P61073, whole entry: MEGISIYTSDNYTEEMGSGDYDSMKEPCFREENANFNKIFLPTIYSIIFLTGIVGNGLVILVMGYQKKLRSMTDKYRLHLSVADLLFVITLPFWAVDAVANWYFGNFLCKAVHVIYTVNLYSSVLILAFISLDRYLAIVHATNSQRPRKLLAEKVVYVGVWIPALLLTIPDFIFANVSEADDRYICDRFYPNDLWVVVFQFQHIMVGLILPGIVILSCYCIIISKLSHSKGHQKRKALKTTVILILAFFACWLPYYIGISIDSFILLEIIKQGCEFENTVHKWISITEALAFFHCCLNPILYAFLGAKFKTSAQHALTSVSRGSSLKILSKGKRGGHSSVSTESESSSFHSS

IC50: 0.126 µM
SMILES: N=C(N)NCCC[C@@H]1NC(=O)[C@H](CCCNC(=N)N)NC(=O)[C@@H](Cc2ccc(O)cc2)NC(=O)CNC(=O)[C@H](Cc2ccc3ccccc3c2)NC1=O
